{
  "sequences": {"note": "Sequences of proteins named here, by UniProt entry; tags and fusion partners are left off. A line that says so, or that is headed by a name, gives the form on record, which may keep a tag or linker.", "UniProt Q03173, other isoform, or with tags, fused parts or gaps limits assumed": "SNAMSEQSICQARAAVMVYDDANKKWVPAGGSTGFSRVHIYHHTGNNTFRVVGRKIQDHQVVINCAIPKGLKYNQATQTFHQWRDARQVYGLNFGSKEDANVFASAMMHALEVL"},
  "source": "patent US12552834",
  "about": "(MIT, dated 2026)",
  "biological_target": "T1, ENAH EVH1 domain (monomeric, wild type) (human, UniProt Q03173 1-111 (mouse entry))",
  "T1 construct": "ENAH residue numbers in the text count from the Met at position 25 of this entry; also called ENAH EVH1 WT; Mena EVH1 WT",
  "test": "BLI, steady state; SUMO-peptide immobilised, EVH1 monomer in solution",
  "data": [
    {"binder": "ABI1 b peptide (biotinylated (BAP tag), ABI1 truncation, tested as a SUMO fusion) peptide: MAGGLNDIFEAQKIEWHEDTGGSSHHHHHHGSGSGSDSEVNQEAKPEVKPEVKPETHINLKVSDGSSEIFFKIKKTTPLRRLMEAFAKRQGKEMDSLTFLYDGIEIQADQTPEDLDMEDNDIIEAHREQIGGSGSGFDDFPPPPPPPPVDYEDEEAAV", "values": [
      {"measurement": "Kd", "value": 3.93, "unit": "µM"}
    ]}
  ]
}
